Legend:
[1] = Metabolic stability in human liver microsomes; conditions: 1 μM test item, 60 minutes, 37° C., NADPH
Method: (§1) Metabolic stability studies were conducted on Compounds A, A1, and A2 as well as Example 128 of WO 2012/151525 using mouse, rat, dog, monkey, and human liver microsomes. The protocol for the studies with mouse, rat, and human liver microsomes (all from BD Gentest, USA) is provided below. 0.4 mg protein was preincubated with 2 mM NADPH (cofactor) in phosphate buffer (pH-7.4) for 15 minutes at 37° C. and then added with 1 μM test item and incubated further for 60 minutes in triplicate. The reaction mixture was terminated with methanol containing an internal standard and centrifuged further to analyze the test item remaining in the supernatant by LC-MS/MS. The percent parent compound remaining was calculated in comparison with similar samples terminated at 0 minutes.

The chains behind the UniProt entries cited, without tags or fusion partners. Where a name states a change or a piece, a line headed by the entry shows the natural chain unless it says otherwise.
UniProt P42336, whole entry: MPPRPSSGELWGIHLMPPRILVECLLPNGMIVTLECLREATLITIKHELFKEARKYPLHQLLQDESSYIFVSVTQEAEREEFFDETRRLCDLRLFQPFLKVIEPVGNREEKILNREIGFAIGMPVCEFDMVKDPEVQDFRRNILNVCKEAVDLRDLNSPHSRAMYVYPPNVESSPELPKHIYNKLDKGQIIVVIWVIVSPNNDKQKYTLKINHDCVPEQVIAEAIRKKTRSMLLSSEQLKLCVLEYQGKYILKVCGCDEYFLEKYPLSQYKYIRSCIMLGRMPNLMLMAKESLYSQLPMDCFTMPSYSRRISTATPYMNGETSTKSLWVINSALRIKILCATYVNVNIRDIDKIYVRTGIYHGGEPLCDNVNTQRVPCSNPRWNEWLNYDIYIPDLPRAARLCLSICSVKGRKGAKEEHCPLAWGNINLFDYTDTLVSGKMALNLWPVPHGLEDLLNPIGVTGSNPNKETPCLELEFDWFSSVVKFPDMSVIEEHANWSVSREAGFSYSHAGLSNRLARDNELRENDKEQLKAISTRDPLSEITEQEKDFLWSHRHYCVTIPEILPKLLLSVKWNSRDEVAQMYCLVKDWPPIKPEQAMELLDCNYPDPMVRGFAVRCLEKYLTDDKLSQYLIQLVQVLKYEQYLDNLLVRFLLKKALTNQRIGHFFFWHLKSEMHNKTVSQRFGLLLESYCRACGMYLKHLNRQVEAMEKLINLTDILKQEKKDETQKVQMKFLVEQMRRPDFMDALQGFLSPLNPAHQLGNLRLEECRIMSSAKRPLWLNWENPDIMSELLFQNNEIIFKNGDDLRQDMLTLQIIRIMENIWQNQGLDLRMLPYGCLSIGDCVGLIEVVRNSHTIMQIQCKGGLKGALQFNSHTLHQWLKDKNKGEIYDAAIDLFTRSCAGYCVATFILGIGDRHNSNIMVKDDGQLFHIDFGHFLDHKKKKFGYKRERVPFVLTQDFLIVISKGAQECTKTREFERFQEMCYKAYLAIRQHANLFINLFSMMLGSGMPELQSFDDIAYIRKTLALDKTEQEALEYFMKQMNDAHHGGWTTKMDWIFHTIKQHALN
UniProt P48736, whole entry: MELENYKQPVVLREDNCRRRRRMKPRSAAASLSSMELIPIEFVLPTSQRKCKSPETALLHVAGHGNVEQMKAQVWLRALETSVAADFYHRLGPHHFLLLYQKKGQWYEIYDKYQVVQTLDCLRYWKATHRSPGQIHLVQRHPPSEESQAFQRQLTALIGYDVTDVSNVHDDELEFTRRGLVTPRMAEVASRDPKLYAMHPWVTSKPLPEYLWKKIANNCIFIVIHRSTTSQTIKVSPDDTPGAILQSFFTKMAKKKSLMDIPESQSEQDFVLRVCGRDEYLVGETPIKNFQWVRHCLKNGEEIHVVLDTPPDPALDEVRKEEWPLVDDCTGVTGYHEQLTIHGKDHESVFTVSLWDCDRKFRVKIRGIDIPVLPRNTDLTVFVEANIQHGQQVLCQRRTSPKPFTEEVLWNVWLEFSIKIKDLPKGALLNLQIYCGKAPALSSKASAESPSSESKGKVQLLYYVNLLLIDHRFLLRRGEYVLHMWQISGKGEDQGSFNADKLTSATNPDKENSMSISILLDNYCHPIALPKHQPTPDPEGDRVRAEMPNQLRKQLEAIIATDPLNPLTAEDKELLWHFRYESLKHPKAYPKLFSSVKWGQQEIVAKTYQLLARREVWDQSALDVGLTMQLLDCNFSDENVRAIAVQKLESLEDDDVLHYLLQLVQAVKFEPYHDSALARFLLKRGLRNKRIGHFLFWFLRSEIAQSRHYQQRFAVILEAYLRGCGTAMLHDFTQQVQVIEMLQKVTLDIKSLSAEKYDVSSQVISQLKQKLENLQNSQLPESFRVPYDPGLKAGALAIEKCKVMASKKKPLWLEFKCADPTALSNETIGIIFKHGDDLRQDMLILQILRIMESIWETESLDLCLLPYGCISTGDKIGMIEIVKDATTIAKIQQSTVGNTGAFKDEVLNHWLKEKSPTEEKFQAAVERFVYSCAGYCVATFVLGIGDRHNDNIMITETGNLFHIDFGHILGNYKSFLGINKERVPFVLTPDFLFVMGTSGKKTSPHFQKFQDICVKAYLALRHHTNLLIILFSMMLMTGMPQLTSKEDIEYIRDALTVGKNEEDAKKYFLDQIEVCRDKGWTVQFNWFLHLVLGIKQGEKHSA
UniProt O00329, whole entry: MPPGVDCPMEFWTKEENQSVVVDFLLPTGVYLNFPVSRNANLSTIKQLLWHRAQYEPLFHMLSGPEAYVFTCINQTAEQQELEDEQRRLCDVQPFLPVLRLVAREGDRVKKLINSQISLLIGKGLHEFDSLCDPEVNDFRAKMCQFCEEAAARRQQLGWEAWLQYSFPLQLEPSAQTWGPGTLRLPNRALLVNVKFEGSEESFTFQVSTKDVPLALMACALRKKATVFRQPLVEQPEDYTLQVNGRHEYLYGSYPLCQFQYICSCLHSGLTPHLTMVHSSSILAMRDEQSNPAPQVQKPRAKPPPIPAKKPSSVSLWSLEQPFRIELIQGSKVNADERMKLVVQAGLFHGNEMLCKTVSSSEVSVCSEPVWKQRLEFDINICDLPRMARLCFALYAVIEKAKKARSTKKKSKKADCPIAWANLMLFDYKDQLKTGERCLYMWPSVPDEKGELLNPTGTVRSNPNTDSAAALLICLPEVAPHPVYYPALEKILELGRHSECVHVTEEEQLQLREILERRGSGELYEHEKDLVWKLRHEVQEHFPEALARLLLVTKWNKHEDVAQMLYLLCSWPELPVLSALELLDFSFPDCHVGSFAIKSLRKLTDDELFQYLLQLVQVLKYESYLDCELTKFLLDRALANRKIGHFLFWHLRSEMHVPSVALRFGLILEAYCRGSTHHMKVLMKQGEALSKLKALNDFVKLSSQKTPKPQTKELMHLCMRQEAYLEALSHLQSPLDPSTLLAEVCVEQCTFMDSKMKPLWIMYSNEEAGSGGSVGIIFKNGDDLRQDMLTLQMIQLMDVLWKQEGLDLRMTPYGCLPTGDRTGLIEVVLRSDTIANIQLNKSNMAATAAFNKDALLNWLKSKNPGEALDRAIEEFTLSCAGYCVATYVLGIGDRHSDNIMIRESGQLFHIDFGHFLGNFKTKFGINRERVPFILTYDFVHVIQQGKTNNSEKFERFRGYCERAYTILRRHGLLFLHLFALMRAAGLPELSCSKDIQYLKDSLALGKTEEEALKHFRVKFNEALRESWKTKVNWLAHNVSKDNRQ
UniProt P42338, whole entry: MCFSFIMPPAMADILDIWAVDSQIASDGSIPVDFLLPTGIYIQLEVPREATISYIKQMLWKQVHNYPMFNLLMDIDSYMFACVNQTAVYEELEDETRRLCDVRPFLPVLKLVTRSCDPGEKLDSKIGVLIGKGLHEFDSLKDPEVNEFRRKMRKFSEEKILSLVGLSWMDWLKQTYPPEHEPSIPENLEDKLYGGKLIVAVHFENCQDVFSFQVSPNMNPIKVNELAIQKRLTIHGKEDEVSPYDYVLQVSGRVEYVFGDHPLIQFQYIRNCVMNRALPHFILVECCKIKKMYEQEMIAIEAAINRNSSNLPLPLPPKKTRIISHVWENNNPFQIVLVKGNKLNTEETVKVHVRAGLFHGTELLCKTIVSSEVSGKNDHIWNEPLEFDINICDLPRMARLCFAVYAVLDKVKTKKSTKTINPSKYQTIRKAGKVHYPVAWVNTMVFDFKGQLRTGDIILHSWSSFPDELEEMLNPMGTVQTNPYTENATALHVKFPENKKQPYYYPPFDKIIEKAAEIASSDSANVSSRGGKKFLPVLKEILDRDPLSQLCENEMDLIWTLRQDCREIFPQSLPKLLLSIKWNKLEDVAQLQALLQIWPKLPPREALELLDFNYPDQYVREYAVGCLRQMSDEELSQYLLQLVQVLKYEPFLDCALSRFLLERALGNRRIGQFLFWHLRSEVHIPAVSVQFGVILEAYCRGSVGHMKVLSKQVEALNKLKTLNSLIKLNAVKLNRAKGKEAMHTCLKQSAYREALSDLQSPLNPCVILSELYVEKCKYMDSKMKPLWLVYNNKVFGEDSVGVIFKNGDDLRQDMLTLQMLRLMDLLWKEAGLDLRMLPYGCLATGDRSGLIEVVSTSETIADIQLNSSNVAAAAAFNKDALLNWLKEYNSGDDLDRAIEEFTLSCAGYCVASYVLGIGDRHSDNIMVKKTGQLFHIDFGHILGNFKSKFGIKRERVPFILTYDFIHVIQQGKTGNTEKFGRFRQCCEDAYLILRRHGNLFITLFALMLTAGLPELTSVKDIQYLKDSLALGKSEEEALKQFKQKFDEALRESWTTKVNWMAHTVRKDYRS
UniProt P27986, whole entry partner: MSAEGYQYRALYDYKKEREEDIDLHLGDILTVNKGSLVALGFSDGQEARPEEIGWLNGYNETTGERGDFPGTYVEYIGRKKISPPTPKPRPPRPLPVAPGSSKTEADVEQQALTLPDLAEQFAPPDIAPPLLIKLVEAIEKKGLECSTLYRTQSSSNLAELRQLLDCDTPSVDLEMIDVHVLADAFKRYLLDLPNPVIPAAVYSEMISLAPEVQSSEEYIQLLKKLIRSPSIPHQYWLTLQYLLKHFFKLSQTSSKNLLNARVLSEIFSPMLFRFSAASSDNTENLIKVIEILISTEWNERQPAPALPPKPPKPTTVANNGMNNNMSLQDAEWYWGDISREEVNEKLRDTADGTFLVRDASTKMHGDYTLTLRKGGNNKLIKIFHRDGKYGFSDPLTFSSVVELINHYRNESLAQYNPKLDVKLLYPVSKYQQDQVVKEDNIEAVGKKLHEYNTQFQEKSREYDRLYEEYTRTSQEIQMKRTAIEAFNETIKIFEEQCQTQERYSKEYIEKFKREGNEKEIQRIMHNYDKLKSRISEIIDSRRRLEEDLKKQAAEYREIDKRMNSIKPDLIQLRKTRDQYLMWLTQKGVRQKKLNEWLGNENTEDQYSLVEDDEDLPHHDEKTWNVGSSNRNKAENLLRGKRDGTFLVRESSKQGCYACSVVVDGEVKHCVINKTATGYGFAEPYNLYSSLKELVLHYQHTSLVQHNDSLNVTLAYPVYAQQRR

[2] = Oral pharmacokinetics in rats; conditions: Rat, 10 mg/kg
Method: The oral bioavailability of Compound A1 (free base) was evaluated in rats and mice. The protocol for the pharmacokinetics studies in rat is provided below.
All animals were fasted overnight (12 hours) before dosing and continued till 4.0 hours after administration of test item. Test item formulations were prepared in 1% Tween 80 and 99% media (0.5% Methyl cellulose, 4000cPs, pH 2.2). The blood samples (150 μL from each animal) were collected from the orbital sinus, and placed into a micro centrifuge tube containing disodium EDTA as an anticoagulant. Blood samples were centrifuged immediately with a speed of 1000 g for 10 min at 4° C. and separated plasma samples were frozen at below −80° C. and stored until analysis. The concentrations of test item in all formulations were analyzed by HPLC. The plasma concentrations of test item in all samples were analyzed by LC-MS/MS. Pharmacokinetic parameters (Cmax, AUC0-t, Tmax, and t^1/2) were estimated by using WinNonlin software. Results are provided in Table 3 for Compound A, A1, and Example 128 of WO 2012/151525 in rats and Compound A1 in mice.

[3] = Metabolic stability in rat liver microsomes; conditions: 1 μM test item, 60 minutes, 37° C., NADPH
Method: as §1

PI3Kα = PI3Kα (Homo sapiens, UniProt P42336); assay: Assay 1: Fluorescent (HTRF) determination of PI3 kinase enzyme activity, PI3Kα
Excerpt: (§2) Phosphoinositide 3 kinases (PI3K) belong to a class of lipid kinases that play a critical role in the regulation of several key cellular processes. The PI3K are capable of phosphorylating the 3-hydroxy position of phosphoinositols thereby generating second messengers involved in downstream signaling events. The homogenous time resolved fluorescence (HTRF) assay allows detection of 3,4,5-triphosphate (PIPS) formed as a result of phosphorylation of phosphotidylinositol 4,5-biphosphate (PIP2) by PI3K isoforms such as α, β, γ or δ.
(§3) PI3K isoform activity for α, β, γ or δ was determined using a PI3K human HTRF™ Assay Kit (Millipore, Billerica, Mass.) with modifications. All incubations were carried out at room temperature. 0.5 μl of 40× inhibitor (in 100% DMSO) or 100% DMSO were added to each well of a 384-well white plate (Greiner Bio-One, Monroe, N.C.) containing 14.5 μl 1× reaction buffer/PIP2 (10 mM MgCl2, 5 mM DTT, 1.38 μM PIP2) mix with or without enzyme, followed by 5 μl/well of 400 μM ATP and incubated for an additional 30 minutes. The reaction was terminated by adding 5 μl/well stop solution (Millipore, Billerica, Mass.). […] HRTF ratio was measured on a microplate reader (BMG Labtech., Germany) at an excitation wavelength of 337 nm and emission wavelengths of 665 and 615 nm with an integration time of 400 msec counting delay of 50 msec.

[4] = Metabolic stability in mouse liver microsomes; conditions: 1 μM test item, 60 minutes, 37° C., NADPH
Method: as §1

PI3Kγ = PI3Kγ (Homo sapiens, UniProt P48736); assay: Assay 1: Fluorescent (HTRF) determination of PI3 kinase enzyme activity, PI3Kγ; conditions: read-out: IC50 (nM) PI3Kγ
Excerpt: as §2, §3

PI3Kδ = PI3Kδ (Homo sapiens, UniProt O00329); assay: Assay 1: Fluorescent (HTRF) determination of PI3 kinase enzyme activity, PI3Kδ; conditions: read-out: IC50 (nM) PI3Kδ
Excerpt: as §2, §3

PI3Kβ = PI3Kβ (Homo sapiens, UniProt P42338); assay: Assay 1: Fluorescent (HTRF) determination of PI3 kinase enzyme activity, PI3Kβ
Excerpt: as §2, §3

CC(c1oc2cccc(F)c2c(=O)c1-c1cccc(F)c1)n1nc(-c2cccc(NS(C)(=O)=O)c2)c2c(N)ncnc21 (centres unmarked)
Metabolic stability in liver microsomes (percent parent compound remaining), Human [1]: 70.4%
AUC0-t [2]: 2.01 µM·h
Cmax [2]: 680 nM
Tmax [2]: 0.83 h
t1/2 [2]: 1.56 h
Metabolic stability in liver microsomes (percent parent compound remaining), Rat [3]: 73.3%
% inhibition @ 1 μM, PI3Kα (PI3Kα): NC (38.29*) %
Metabolic stability in liver microsomes (percent parent compound remaining), Mouse [4]: 85.0%
IC50 (PI3Kγ): 70.7 nM
IC50 (PI3Kδ): 76 nM
% inhibition @ 1 μM, PI3Kβ (PI3Kβ): NC (51.04*) %
